One compound from ChEMBL document CHEMBL1124310, “Antiinflammatory 2,6-di-tert-butyl-4-(2-arylethenyl)phenols” (J Med Chem, 1989) can be followed below.

The chains behind the UniProt entries cited, without tags or fusion partners. Where a name states a change or a piece, a line headed by the entry shows the natural chain unless it says otherwise.
UniProt P35354: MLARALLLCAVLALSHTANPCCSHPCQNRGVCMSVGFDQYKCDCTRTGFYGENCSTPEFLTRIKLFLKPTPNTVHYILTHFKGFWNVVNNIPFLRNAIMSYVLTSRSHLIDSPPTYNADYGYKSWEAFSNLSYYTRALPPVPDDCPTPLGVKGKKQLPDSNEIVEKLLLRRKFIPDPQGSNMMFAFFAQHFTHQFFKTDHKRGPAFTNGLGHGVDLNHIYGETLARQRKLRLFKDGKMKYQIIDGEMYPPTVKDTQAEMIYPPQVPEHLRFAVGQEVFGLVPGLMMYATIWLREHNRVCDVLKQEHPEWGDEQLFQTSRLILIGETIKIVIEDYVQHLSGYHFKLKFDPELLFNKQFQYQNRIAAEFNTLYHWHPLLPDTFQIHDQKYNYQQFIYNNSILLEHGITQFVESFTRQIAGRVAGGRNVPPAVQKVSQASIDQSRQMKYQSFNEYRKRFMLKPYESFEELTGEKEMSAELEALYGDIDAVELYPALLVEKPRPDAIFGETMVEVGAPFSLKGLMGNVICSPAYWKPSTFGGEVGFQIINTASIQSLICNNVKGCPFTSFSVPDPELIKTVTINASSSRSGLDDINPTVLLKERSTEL
UniProt P23219: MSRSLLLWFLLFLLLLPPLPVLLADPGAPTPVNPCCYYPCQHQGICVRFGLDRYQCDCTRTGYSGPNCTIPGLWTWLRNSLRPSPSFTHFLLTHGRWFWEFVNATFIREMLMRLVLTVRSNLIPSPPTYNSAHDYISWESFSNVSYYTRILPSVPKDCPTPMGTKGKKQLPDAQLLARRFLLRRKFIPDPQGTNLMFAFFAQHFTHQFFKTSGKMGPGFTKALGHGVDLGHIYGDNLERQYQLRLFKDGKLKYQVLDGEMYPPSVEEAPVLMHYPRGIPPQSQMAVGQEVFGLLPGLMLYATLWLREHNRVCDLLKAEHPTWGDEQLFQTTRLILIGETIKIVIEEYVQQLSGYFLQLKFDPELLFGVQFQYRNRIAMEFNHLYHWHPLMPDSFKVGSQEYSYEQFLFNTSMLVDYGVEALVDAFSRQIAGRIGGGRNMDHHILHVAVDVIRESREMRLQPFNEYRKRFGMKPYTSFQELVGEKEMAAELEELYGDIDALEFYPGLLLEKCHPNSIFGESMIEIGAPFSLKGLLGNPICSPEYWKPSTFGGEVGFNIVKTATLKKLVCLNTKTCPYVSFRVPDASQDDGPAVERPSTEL

In general, IC50 refers to the concentration that gives 50% inhibition.

Structures are written as SMILES.

This assay addresses Cyclooxygenase (Homo sapiens, UniProt P35354+P23219). In words: Inhibitory concentration required for inhibition of Prostaglandin G/H synthase. It counts as functional.

The compound `CC(C)(C)c1cc(/C=C/c2cccnc2)cc(C(C)(C)C)c1O` gave an IC50 of 670 nM.
